Data reported in patent US20220133694A1, “PHARMACEUTICAL USE” (Novartis AG, priority 2015, published 2022).
Where two headings read alike, the source gives them in different places.

System: heart failure patients (NYHA class II-IV) with reduced ejection fraction
Conditions: for proportion of patients who achieved the target dose of LCZ696 200 mg bid without any dose adjustment or interruption over 12 weeks: across both run-in and randomized periods; for rate of treatment success when up-titrated more gradually (6 weeks versus 3 weeks), in words: low dose / low RAAS stratum (naive or equivalent to <10 mg enalapril/day)

With “trisodium [3-((1S,3R)-1-biphenyl-4-ylmethyl-3-ethoxycarbonyl-1-butylcarbamoyl) propionate-(S)-3′-methyl-2′-(pentanoyl{2″-(tetrazol-5-ylate)biphenyl-4′-ylmethyl}amino)butyrate]hemipentahydrate [LCZ696]” the “difference between the uptitration regimens in the treatment success rate” value (ACEI/ARB-naive patients) was “no major difference”, the “proportion of patients who achieved the target dose of LCZ696 200 mg bid without any dose adjustment or interruption over 12 weeks” value (based on total number of patients receiving at least one dose of study medication) was 70% and the “proportion of patients who achieved the target dose of LCZ696 200 mg bid without any dose adjustment or interruption over 12 weeks” value (discontinuations due to non-AE reasons excluded) was 76%. For the same substance, the “patients who achieved and maintained the target dose of 200 mg twice daily without any dose interruption or down-titration over 12 weeks, in words” value (all patients initiated on treatment) was “large majority”, the “difference in treatment success rate by rate of up-titration (3 weeks vs. 6 weeks)” value (high RAAS stratum) was “no difference” and the “treatment success rate (achieved target dose 200 mg bid, no dose adjustment/interruption over 12 weeks)” value (high RAAS stratum (prior high levels of RAAS therapy), 3 or 6 weeks up-titration) was 83%. The “difference in treatment success rate, gradual up-titration over 6 weeks compared to condensed up-titration over 3 weeks” value (low RAAS stratum) was 10%, the “treatment success rate (achieved target dose 200 mg bid, no dose adjustment/interruption over 12 weeks)” value (low RAAS stratum (ACEI/ARB naive or prior low levels of RAAS therapy), up-titrated over 6 weeks) was 85% and the “treatment success rate (achieved target dose 200 mg bid, no dose adjustment/interruption over 12 weeks)” value (low RAAS stratum, up-titrated over 3 weeks) was 74%. For the same substance, the “rate of treatment success when up-titrated more gradually (6 weeks versus 3 weeks), in words” value was “higher”, the “rate of treatment success when up-titrated more gradually (6 weeks versus 3 weeks), in words” value (listed as sacubitril and valsartan in a 1:1 molar ration) was “More patients” and the “proportion of patients on the LCZ696 200 mg bid target dose for at least 2 weeks before study completion” value (randomized patients, excluding those who discontinued due to non-AE related reasons) was 85%. For the same substance, the “proportion of patients who achieved the target LCZ696 200 mg bid dose without any down-titration or dose interruption over the entire 12-week study period” value (randomized patients, excluding those who discontinued due to non-AE related reasons, both regimens) was 81%.
